Results on one compound are retold here after patent US20050107430A1, “Antimicrobial and antiviral compounds” (priority 2003, published 2005).

The test system of this assay is various microorganisms. The assay can be described thus: Antimicrobial activity tests, various microorganisms. To be noted: in words.

With `CN1CCN(CCCCNc2cc3c4ccccc4c(NCCCCN4CCN(C)CC4)cc3c3ccccc23)CC1.Cl` [Tx-147], the antimicrobial activity entry is on record as “active against a broad range of resistant organisms”.
